## Yeast mating assay B: variants of the scFv Ab-14

Source: Li et al. 2023 (doi:10.1038/s41467-023-39022-2), MIT Lincoln Laboratory and A-Alpha Bio; data file from the FLAb repository.

Target: peptide PDVDLGDISGINAS, taken from heptad repeat 2 (HR2) of SARS-CoV-2 spike.

Ab-14 is the parent antibody, in scFv form: VH, then a (GGGGS)3 linker, then VL. The heavy chain is unchanged in all variants.
VH: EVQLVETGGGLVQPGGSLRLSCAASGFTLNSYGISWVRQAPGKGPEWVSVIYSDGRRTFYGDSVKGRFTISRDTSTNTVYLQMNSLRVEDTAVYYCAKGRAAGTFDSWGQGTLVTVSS
VL: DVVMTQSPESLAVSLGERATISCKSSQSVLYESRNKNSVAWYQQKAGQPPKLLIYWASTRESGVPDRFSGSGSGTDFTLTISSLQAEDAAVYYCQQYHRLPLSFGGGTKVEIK

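Phage display of a naive human antibody library on the peptide gave the parent. These sequences belong to a second round, designed from the earlier measurements on random variants of the parent. Group labels follow the data file (Ctrl: baseline library sampled from a position-specific scoring matrix, with some repeated check sequences; Rand: our label for a block that the file lists under HC and that is probably the random mutants of the ten best first-round binders; GP: Gaussian process model; HC: hill climbing; Gen: genetic algorithm; Gibbs: Gibbs sampling; a sequence that several methods proposed may carry one label only). The assay is AlphaSeq: two haploid yeast populations carry antibody and antigen on their surface. Pairs that bind mate more often; barcode pairs of the diploids are counted by sequencing. The ratio of observed to expected reads was calibrated, replicate by replicate, on BCL2-family standards whose Kd was known from biolayer interferometry. Each pool was mated in six replicate cultures.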

Each variant is given by its three light chain CDRs, as the data file delimits them; those of the parent are KSSQSVLYESRNKNSVA, WASTRES, QQYHRLPLS.
Variants here have at most six changes.
The Kd shown is the geometric mean over detected replicates; a lower Kd is a better binder.
An entry "nd" has no value in the source: the pair was not observed among the diploids in any replicate. This suggests poor binding but is not conclusive.
The authors averaged sequences with at least three values out of six and counted those with two or fewer as poor binders.
Values of this round are not directly comparable with the first-round values of the same sequences.
Empty control strains, which show no peptide, gave a signal in 4% of pairings with all light chain designs; the median was 430 nM and 95% of these signals were weaker than 38 nM. No background was subtracted. The control count says in how many pairings with the empty strains this scFv gave a signal.
Of ten entries with the parent sequence, four were seen in most replicates (averages 2.2 nM to 240 nM), three in one and three in none, so single entries are noisy.

* KSSQSVLYESSNKNSVA / WASTNES / QQYHRLPLS [Ctrl]: nd (0 of 6 replicates; controls 1 of 18)
* KLSLSVLYESRNKNSVA / NASTRES / QQYHRLPLS [GP_HC]: 780 pM (6 of 6 replicates; controls 0 of 18)
* KSSQSVNYEKRNKNSVA / WAATRES / QQYHRLPLS [Ctrl]: 7.9 µM (1 of 6 replicates; controls 0 of 18)
* KSSQSVLYESRNKNSVA / KASTRLS / QQYHRLPLS [Ctrl]: 63 nM (6 of 6 replicates; controls 0 of 18)
* KLSQSVDYESRNKNSVA / NASTRLS / QQYHRLPLS [GP_Gen]: 1.4 nM (6 of 6 replicates; controls 0 of 18)
* KLSQSVEYESRQKNSVA / NASQRES / QQYHRLPLS [GP_Gen]: 680 pM (6 of 6 replicates; controls 1 of 18)
* KLSQSFLYESRNKNSVA / DASTRLS / QQYHRLPLS [GP_Gen]: 450 pM (6 of 6 replicates; controls 0 of 18)
* KSSISYLYESRNWNSVA / EASTREQ / QQYHRLPLS [GP_HC]: 1.1 nM (6 of 6 replicates; controls 0 of 18)
* KSGEGVLYESRNKNSVA / GASTEES / QQYHRLPLS [Rand]: nd (0 of 6 replicates; controls 0 of 18)
* KSSQSVSYESRNKNSVA / KDSTRES / QQYHRLPLS [Ctrl]: 730 nM (4 of 6 replicates; controls 1 of 18)
* KVQQSELYESRNKNSVA / NASLRES / QQYHRLPLS [GP_Gen]: 1.3 nM (6 of 6 replicates; controls 0 of 18)
* KSSQSVLYESRNAYSVA / WASTRCS / QQYHALPLS [Ctrl]: 18 nM (2 of 6 replicates; controls 0 of 18)
* KFSQSWLYESRNFWSVA / GASHRES / QQYHRLPLS [GP_HC]: 1.9 nM (6 of 6 replicates; controls 1 of 18)
* KQSQSVLMESRNKNSVA / EASTRES / QQYHRLPLD [GP_HC]: 290 nM (3 of 6 replicates; controls 0 of 18)
* KSSHSVLGESSNKNSVA / WASTRES / QQYHRLPLS [Ctrl]: 5.4 nM (6 of 6 replicates; controls 0 of 18)
* KSPQSELYESRNKNSVA / NASQRES / QQYHRLPLS [GP_Gen]: 1.5 nM (6 of 6 replicates; controls 0 of 18)
* KFQQSDPYESRNKNSVA / EASTRSS / QQYHRLPLS [GP_Gibbs]: 1.3 nM (6 of 6 replicates; controls 3 of 18)
* HCSQSCLYESRNKNSVA / WADTRES / QQYHRLPLS [Ctrl]: nd (0 of 6 replicates; controls 0 of 18)
* KMSQSVLYESRNKNSVA / WASTRFS / QQYHRLPLS [Ctrl]: 4.6 nM (6 of 6 replicates; controls 0 of 18)
* KVSQSVLYESRNKNSVA / WASTRES / QQGHRLPLS [Ctrl]: 250 nM (1 of 6 replicates; controls 1 of 18)
* ILMQSVLYESRNKNSVA / HASLRED / QQYHRLPLS [GP_HC]: 28 nM (6 of 6 replicates; controls 1 of 18)
* KLSQSVLYEERNKNSVA / AASTRES / QQYHRLPLS [Ctrl]: 470 pM (6 of 6 replicates; controls 0 of 18)
* KVSQSVLQEDRNSNSVA / NASTREL / QQYHRLPLS [GP_Gibbs]: 1.5 nM (6 of 6 replicates; controls 0 of 18)
* KLPQSQLYESRNKNSVA / NASQRES / QQYHRLPLS [GP_Gen]: 950 pM (6 of 6 replicates; controls 2 of 18)
* KSSQSVLYEARNKNSVA / WASTREA / QQYHRLPLS [Ctrl]: 29 nM (6 of 6 replicates; controls 1 of 18)
* KLVNSTLYESRQKNSVA / WASTREV / QQYHRLPLS [GP_HC]: 110 nM (6 of 6 replicates; controls 0 of 18)
* QVSQSVLYESRNKNSVA / NASTRES / QQYHRLPLS [GP_Gen]: 610 pM (6 of 6 replicates; controls 2 of 18)
* KSYPSYLYESRNKNSVA / QASTRES / QQYHRLPLS [GP_HC]: 3.2 nM (6 of 6 replicates; controls 0 of 18)
* KSQQSVLYEDRQKNSCA / WASTRES / QQYHRLPLS [Ctrl]: nd (0 of 6 replicates; controls 0 of 18)
* KLSQSELGESRNKNSVA / NASTRES / QQYHRLPLS [GP_Gen]: 490 pM (6 of 6 replicates; controls 0 of 18)
* KSSQSVLYERRNKNSVA / WASTRES / QQYHRLPLS [Ctrl]: 64 nM (5 of 6 replicates; controls 0 of 18)
* KLSQSTLYESRNTNSVA / QASQRLS / QQYHRLPLS [GP_Gibbs]: 2.2 nM (6 of 6 replicates; controls 1 of 18)
* KISQSVLYESRNKNSVA / WAITRES / QQYHRLPLS [Ctrl]: 120 nM (6 of 6 replicates; controls 0 of 18)
* KSSQSVLYESRNKNSVA / QASTRES / QQYHRLPLS [Ctrl]: 4.8 nM (6 of 6 replicates; controls 1 of 18)
* KGSQSWLYESRNKNSVA / GGSTRES / QQYHRLPLS [GP_HC]: 290 pM (6 of 6 replicates; controls 1 of 18)
* KSLQSVLYESRNKNNVA / HASTRED / QQYHRLPLS [GP_HC]: 1.2 nM (6 of 6 replicates; controls 0 of 18)
* KVSQSVLYESRVKNSVA / DASTRCS / QQYHRLPLS [GP_HC]: 850 pM (6 of 6 replicates; controls 3 of 18)
* KSSQSVLYESENKNSVA / WASTRES / QQYHRLPLS [Ctrl]: 17 nM (6 of 6 replicates; controls 4 of 18)
* KSFFSEPGESRNKNSVA / EASTRES / QQYHRLPLS [GP_Gibbs]: 15 nM (6 of 6 replicates; controls 1 of 18)
* KVSQSDLYESRNKNSVA / QASTRES / QQYHRLPLS [GP_Gen]: 300 pM (6 of 6 replicates; controls 0 of 18)
* KHQQSVLYESRNKNNVA / HASTRED / QQYHRLPLS [GP_HC]: 880 pM (6 of 6 replicates; controls 0 of 18)

4 of these entries, quoted again:

- KSSISYLYESRNWNSVA / EASTREQ / QQYHRLPLS [GP_HC] = 1.1 nM (6 of 6 replicates; controls 0 of 18)
- KMSQSVLYESRNKNSVA / WASTRFS / QQYHRLPLS [Ctrl] = 4.6 nM (6 of 6 replicates; controls 0 of 18)
- KSSQSVLYESRNKNSVA / QASTRES / QQYHRLPLS [Ctrl] = 4.8 nM (6 of 6 replicates; controls 1 of 18)
- KVSQSVLYESRNKNSVA / WASTRES / QQGHRLPLS [Ctrl] = 250 nM (1 of 6 replicates; controls 1 of 18)